Protein sequences, listed by entry. Tags and fused reporters are not part of them. Lines headed by an entry give the natural chain unless they say otherwise; changes in a name come on top.
UniProt C7C422: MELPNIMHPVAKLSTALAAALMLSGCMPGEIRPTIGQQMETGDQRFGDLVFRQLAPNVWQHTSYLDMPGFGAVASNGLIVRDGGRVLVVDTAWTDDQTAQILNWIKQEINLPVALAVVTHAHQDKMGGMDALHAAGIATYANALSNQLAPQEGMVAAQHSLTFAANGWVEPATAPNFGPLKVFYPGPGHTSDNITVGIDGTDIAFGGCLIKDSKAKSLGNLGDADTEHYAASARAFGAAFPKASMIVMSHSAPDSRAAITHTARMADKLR

In ChEMBL document CHEMBL5365420, “Kinetics, Thermodynamics, and Structural Effects of Quinoline-2-Carboxylates, Zinc-Binding Inhibitors of New Delhi Metallo-β-lactamase-1 Re-sensitizing Multidrug-Resistant Bacteria for Carbapenems” (J Med Chem, 2023):

Target: Metallo-beta-lactamase type 2 (Bacteria, UniProt C7C422)

Row | SMILES | IC50
1 | Oc1c(I)cc(Cl)c2cccnc12 [CLIOQUINOL] | 3 µM
2 | Oc1ccc(Cl)c2cccnc12 [CLOXYQUIN] | 28 µM
